Source: patent publication US4442090A, “Absorption-promoting compounds, compositions thereof with pharmaceuticals and/or bases for rectal administration and method of use” (Kyoto Yakuhin Kogyo Kabushiki Kaisha, priority 1980, dated 1984)

Assays:
[1] = Urinary excretions of aminoglycoside antibiotics after rectal suppository (rabbit); settings: Kanamycin sulfate 125 mg (potency), Compound (I) 5%, Witepsol H-15
[2] = Urinary excretions of β-lactam antibiotics after rectal suppository (rabbit); format: in vivo; settings: Cefotaxime 125 mg (potency), Compound (I) 5%, Witepsol H-15
Protocol: The absorption into the circulation through the rectum of the rectal suppositories thus prepared was determined by measuring urinary excretion of the pharmacologically-active substance.
Thus, Sarcina lutea and Bacillus subtilis were used as assay organisms for penicillins and cephalosporins, respectively, and the assays were performed by the paper disk method (cultivation at 37° C. for from 15 to 20 hours).

For CCCCOc1ccc(C(=O)O)cc1 [Compound 3-Na, p-Butoxybenzoic acid], the “Urinary excretions (%) 2-4 hr.” value [1] was 12.2%.
With “Polyoxyethylene stearyl ether carboxylic acid (with 6 moles of ethylene oxide) [Compound 9-Na]” the “Urinary excretions (%) 0-2 hr.” value [2] was 30.9%, the “Urinary excretions (%) 2-4 hr.” value [2] was 12.2% and the “Urinary excretions (%) 4-6 hr.” value [2] was 1.5%. For the same compound, the “Urinary excretions (%) Total (0-6 hr.)” value [2] was 44.6%.
